The values below are quoted from earlier work in patent US20070071689A1, “Advantageous combination for inhalation of nacystelyn and bronchodilators” (GALEPHAR M/F, priority 2003, published 2007).

For the series the following is noted: administration via the inhalation route.

As for L-Lysine N-Acetylcysteinate [NAL], the “bronchospasms (side effects)” value is “without observing any side effects (bronchospasms)”.
